Literature values, collected in patent publication US20220194914A1, “METHODS AND SYSTEMS FOR PRODUCTION OF FURFURAL” (SHELL OIL COMPANY, priority 2020, published 2022).

Conditions: octanol-water; Table 2 solvents; cited from earlier work

For CC(=O)CC(C)C [methylisobutyl ketone], the LogP is given as 1.25.
